Results: ChEMBL document CHEMBL1134644 (J Med Chem, 2001)

Amino acid sequences for entries named in this document (tags omitted).
UniProt P0DMS8, whole entry: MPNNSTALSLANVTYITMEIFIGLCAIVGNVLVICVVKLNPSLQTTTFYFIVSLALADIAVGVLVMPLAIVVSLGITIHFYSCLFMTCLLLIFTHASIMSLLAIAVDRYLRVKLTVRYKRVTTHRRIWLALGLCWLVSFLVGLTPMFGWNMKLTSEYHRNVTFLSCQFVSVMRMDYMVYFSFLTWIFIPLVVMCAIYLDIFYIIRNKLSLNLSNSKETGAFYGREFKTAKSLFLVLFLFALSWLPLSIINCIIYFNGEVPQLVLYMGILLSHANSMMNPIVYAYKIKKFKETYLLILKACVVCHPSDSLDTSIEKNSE
UniProt P0DMS8, whole entry H272E: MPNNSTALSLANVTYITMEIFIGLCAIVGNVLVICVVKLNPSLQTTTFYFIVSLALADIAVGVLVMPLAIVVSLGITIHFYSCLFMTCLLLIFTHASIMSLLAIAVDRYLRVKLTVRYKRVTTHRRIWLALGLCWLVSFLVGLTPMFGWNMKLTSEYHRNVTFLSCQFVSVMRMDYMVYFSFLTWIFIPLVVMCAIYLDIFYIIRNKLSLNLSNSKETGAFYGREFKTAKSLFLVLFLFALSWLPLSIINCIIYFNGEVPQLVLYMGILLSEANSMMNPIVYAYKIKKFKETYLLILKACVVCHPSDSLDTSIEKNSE

Assays:
Adenosine receptor A3 [1] = molecular target: Adenosine receptor A3 (Homo sapiens, UniProt P0DMS8); assay: Binding affinity at wild-type Adenosine A3 receptor expressed in COS-7 cells; assay type: cell-based
Adenosine receptor A3 [2] = molecular target: Adenosine receptor A3 (Homo sapiens, UniProt P0DMS8, H272E); assay: Binding affinity at Mutant (H272E) human adenosine A3 receptor expressed in COS-7 cells; assay type: cell-based

- Ki (Adenosine receptor A3 [1]): 1.2 nM
- Ki (Adenosine receptor A3 [2]): 2.1 nM
Compound: CNC(=O)[C@H]1O[C@@H](n2cnc3c(NCc4ccc(N)c(I)c4)ncnc32)[C@H](O)[C@@H]1O
